The test has as its target T1, Steroid hormone receptor ERR1 (Homo sapiens) (UniProt P11474).
T1 sequence (whole entry): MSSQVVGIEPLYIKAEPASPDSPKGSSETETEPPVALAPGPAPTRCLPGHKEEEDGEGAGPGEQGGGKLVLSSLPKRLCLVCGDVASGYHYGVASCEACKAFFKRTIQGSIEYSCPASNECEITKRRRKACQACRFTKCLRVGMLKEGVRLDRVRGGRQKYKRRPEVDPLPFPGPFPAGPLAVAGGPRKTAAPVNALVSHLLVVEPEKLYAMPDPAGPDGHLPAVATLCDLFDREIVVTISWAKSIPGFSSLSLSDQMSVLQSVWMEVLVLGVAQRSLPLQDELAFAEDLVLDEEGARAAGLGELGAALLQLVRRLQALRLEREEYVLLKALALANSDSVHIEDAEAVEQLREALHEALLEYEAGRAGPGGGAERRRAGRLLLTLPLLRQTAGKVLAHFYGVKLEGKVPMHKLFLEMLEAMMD
The conditions noted are these: 10 uM.

SMILES strings stand for the structures. The source made the active and inactive calls. The calls are words filed in the database; no cut-off is given here.

Turning to `CCc1nnc(NC(=O)/C(C#N)=C/c2ccc(OCc3cc(C(F)(F)F)ccc3C(F)(F)F)c(OC)c2)s1`, the inhibition result was “inactive”.

As to `CCc1nnc(NC(=O)/C(C#N)=C/c2ccc(OCc3c(F)cccc3C(F)(F)F)c(OC)c2)s1`, the inhibition result was “inactive”.
